## scFv variants of Ab-14 (heavy chain) against a SARS-CoV-2 spike peptide

Source: Li et al. 2023 (doi:10.1038/s41467-023-39022-2), MIT Lincoln Laboratory and A-Alpha Bio; data file from the FLAb repository.

Target: peptide PDVDLGDISGINAS, taken from heptad repeat 2 (HR2) of SARS-CoV-2 spike.

The variants keep the light chain, the linker and the frameworks of Ab-14 (scFv order VH, the linker GGGGSGGGGSGGGGS, VL).
VH: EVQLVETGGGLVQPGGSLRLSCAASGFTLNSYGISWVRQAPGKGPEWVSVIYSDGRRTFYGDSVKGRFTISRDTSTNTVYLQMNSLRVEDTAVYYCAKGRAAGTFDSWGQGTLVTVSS
VL: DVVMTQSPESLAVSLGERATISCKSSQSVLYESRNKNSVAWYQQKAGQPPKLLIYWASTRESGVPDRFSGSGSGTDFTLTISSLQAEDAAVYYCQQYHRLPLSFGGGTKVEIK

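The variants were designed computationally from a first round of random CDR variants and then made and measured. Their group label is 14H_En_Gibbs (En: ensemble of fine-tuned language models; Gibbs: Gibbs sampling). The assay is AlphaSeq: two haploid yeast populations carry antibody and antigen on their surface. Mating (16 h, 30 °C) was followed by selection of diploids and sequencing of their barcodes. Scores were corrected for input abundance and mapped to Kd with protein pairs of known affinity run in the same pool. Mating was done six times.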

Each variant is given by its three heavy chain CDRs, as the data file delimits them; those of the parent are GFTLNSYGIS, VIYSDGRRTFYGDSVK, GRAAGTFDS.
Affinities are written as log10 Kd with Kd in nM; a lower number is a better binder.
A pair that was not seen in that replicate is written "n.d."; this usually means weak binding, but a binder can also be missed.
The parent sequence was in this pool as ten entries: three were never detected, three once, and four in most replicates, with averages from 0.34 to 2.37.

CDR-H1,CDR-H2,CDR-H3,log10 Kd (nM) by replicate,control signals
GFKLDEFGIS,VIYADGHRVAYSDKVK,GHNVDAFFV,n.d. / n.d. / n.d. / n.d. / n.d. / n.d.,0 of 18
GFTLDEYGIS,VIYADGMRTQYIDQVK,GDLVNTNMT,n.d. / n.d. / n.d. / n.d. / n.d. / n.d.,1 of 18 (3.10)
GFDLEEYGIS,VIYADGVRTAYKNKVK,GWIAGGQFD,n.d. / n.d. / n.d. / n.d. / n.d. / n.d.,1 of 18 (2.59)
GFNLGEYGIS,VIYADGTRKGYANSVK,GAVHGFYLD,n.d. / n.d. / 2.21 / n.d. / n.d. / n.d.,0 of 18
GFDINEYGIS,VIYADGKKTAFANSVK,GESAGTFDD,1.19 / 0.91 / 0.55 / 0.68 / 0.84 / 0.88,1 of 18 (2.27)
GFDVEEYGIS,VIYADGRRSQYANSVK,GAIRGTFDS,n.d. / n.d. / n.d. / n.d. / n.d. / n.d.,0 of 18
GESLDEYGIS,VIYADGVRSQYTDQVK,GVETGAVLD,0.99 / n.d. / 1.00 / 1.50 / 2.93 / 1.73,0 of 18
GEDLQEYGIS,VIYADGFRQSYSEKVK,GQHGGYLVK,n.d. / n.d. / n.d. / n.d. / n.d. / n.d.,0 of 18
GFDVEEYGIS,VIYADGRRSSYSQSVK,GVYSGTIYV,n.d. / n.d. / n.d. / n.d. / n.d. / n.d.,0 of 18
GFALDEYGIS,VIYADGSRTVYAGDVK,GMLGVNFTM,n.d. / n.d. / n.d. / n.d. / n.d. / n.d.,0 of 18
GFDLDNFGIS,VIYADGIRTQYQDSVK,GQNVATFDV,n.d. / n.d. / n.d. / n.d. / n.d. / n.d.,0 of 18
GFNLDEYGIS,VIYADGVRKAYSSKVK,GVVWWFNLQ,n.d. / n.d. / n.d. / n.d. / n.d. / n.d.,1 of 18 (2.27)
GENLSEYGIS,VIYADGRKTAYSNAVK,GAVGGIFVN,n.d. / n.d. / n.d. / n.d. / n.d. / n.d.,0 of 18
GFQLNEYGIS,VIYADGIRRAYASKVK,GGEDASFDL,n.d. / n.d. / n.d. / n.d. / n.d. / n.d.,0 of 18
GQDINEYGIS,VIYADGMRQAYSQNVK,GNINQFDAV,n.d. / n.d. / n.d. / n.d. / n.d. / n.d.,0 of 18
GFQLNEYGIS,VIYADGMRSEYQDSVK,GSNSSSFKV,n.d. / n.d. / n.d. / n.d. / n.d. / n.d.,0 of 18
GFELQEYGIS,VIYADGMKQAYRDAVK,GGIAGNFMM,n.d. / n.d. / n.d. / n.d. / n.d. / n.d.,1 of 18 (1.56)
GFYLNEYGIS,VIYADGIRSRYANKVK,GNGAGTLDD,n.d. / n.d. / n.d. / n.d. / n.d. / n.d.,0 of 18
GDSLDEYGIS,VIYADGQRSYYANSVK,GEVDGLFSQ,n.d. / n.d. / n.d. / n.d. / n.d. / 1.95,0 of 18
GFNLNEVGIS,VIYADGLRSAYVDSVK,GGVVAVDFV,n.d. / n.d. / n.d. / n.d. / n.d. / n.d.,0 of 18
GFTLDEYGIS,VIYADGQRTAYTDDVK,GQYGGIGTI,n.d. / n.d. / n.d. / n.d. / n.d. / n.d.,0 of 18
GFALNEYGIS,VIYADGIRQVYANKVK,GNQTGTLLI,n.d. / n.d. / n.d. / n.d. / n.d. / n.d.,0 of 18
GFDLNEMGIS,VIYADGRRVEYNDKVK,GMLTGTFDQ,n.d. / 2.76 / n.d. / n.d. / n.d. / n.d.,1 of 18 (1.61)
GFSIDEYGIS,VIYADGLRQFYTNAVK,GMAAGTLDM,n.d. / n.d. / n.d. / n.d. / n.d. / n.d.,0 of 18
GFDLGEYGVS,VIYADGKRTFYADHVK,GVNAGFFDT,n.d. / n.d. / n.d. / n.d. / 3.11 / n.d.,2 of 18 (2.46)
GFDIQDYGIS,VIYADGSRTAYTNSVK,GLTGAFAGL,n.d. / n.d. / n.d. / n.d. / 3.03 / n.d.,0 of 18
GFDVMEYGIS,VIYADGLRKQYANSVK,GGLRTDFFV,n.d. / n.d. / n.d. / n.d. / n.d. / n.d.,0 of 18
GADLNEYGIS,VIYADGDRKAFQDDVK,GTNAGDFDI,n.d. / n.d. / n.d. / n.d. / n.d. / n.d.,0 of 18
GKKLDEYGIS,VIYADGKRKFYSNSVK,GGMAGGTTV,n.d. / n.d. / n.d. / n.d. / n.d. / n.d.,1 of 18 (3.67)
GKGLDEYGVS,VIYADGKRHQYAEDVK,GGIAGQFDV,n.d. / n.d. / n.d. / n.d. / n.d. / n.d.,1 of 18 (1.09)
GFDLDEYGIS,VIYADGNRVFYADTVK,GLLGILYVV,n.d. / n.d. / n.d. / n.d. / n.d. / n.d.,0 of 18
GFDLDQYGIS,VIYADGRRTAYDNDVK,GQVAGIFLD,1.04 / 1.58 / n.d. / 2.58 / 1.26 / n.d.,0 of 18
GFDLNNYGIS,VIYADGLRVEYENKVK,GDVAGTFDS,0.38 / 0.16 / 0.21 / -0.16 / 0.16 / 0.05,0 of 18
GFSLDEMGIS,VIYADGQRTAYQDNVK,GANGVVVFV,n.d. / n.d. / n.d. / n.d. / n.d. / n.d.,0 of 18
GQDIEHYGIS,VIYADGKRSGYSNAVK,GQQAGTFNT,n.d. / 1.61 / 0.15 / n.d. / n.d. / 0.79,0 of 18
GFDIEEYGIS,VIYADGIRQAYKDSVK,GWNVGRFSV,n.d. / n.d. / n.d. / n.d. / n.d. / n.d.,0 of 18
GNDLSEYGIS,VIYADGIRTNYSQNVK,GTLGDVFTQ,n.d. / n.d. / n.d. / n.d. / n.d. / n.d.,0 of 18

Picked from the list: the 2 lowest averages where every replicate gave a value.

{"CDR-H1": "GFDLNNYGIS", "CDR-H2": "VIYADGLRVEYENKVK", "CDR-H3": "GDVAGTFDS", "log10 Kd (nM) by replicate": "0.38 / 0.16 / 0.21 / -0.16 / 0.16 / 0.05", "control signals": "0 of 18"}
{"CDR-H1": "GFDINEYGIS", "CDR-H2": "VIYADGKKTAFANSVK", "CDR-H3": "GESAGTFDD", "log10 Kd (nM) by replicate": "1.19 / 0.91 / 0.55 / 0.68 / 0.84 / 0.88", "control signals": "1 of 18 (2.27)"}

Values of this round are not directly comparable with the first-round values of the same sequences.
As a blank, each scFv also met three strains without target: over all heavy chain designs, 1% of these pairings were detected, typically at 2.08 and seldom below 0.84. The control count says in how many pairings with the empty strains this scFv gave a signal, with their mean in brackets.
The authors' rule: three or more of the six replicates give a measured affinity, fewer mean a poor binder.